Laboratory results as given in US11730714B2, “Compounds for the treatment of neuromuscular disorders” (NMD PHARMA A/S, priority 2017, dated 2023).

Target: T1, CIC-1 channels (Rattus norvegicus, UniProt P35524)
T1 construct: Gm was measured in individual fibres of whole rat soleus muscles; from tissue; host or cells: soleus muscle of adult (12-14 week old) Wistar rats
T1 sequence (P35524 1-994): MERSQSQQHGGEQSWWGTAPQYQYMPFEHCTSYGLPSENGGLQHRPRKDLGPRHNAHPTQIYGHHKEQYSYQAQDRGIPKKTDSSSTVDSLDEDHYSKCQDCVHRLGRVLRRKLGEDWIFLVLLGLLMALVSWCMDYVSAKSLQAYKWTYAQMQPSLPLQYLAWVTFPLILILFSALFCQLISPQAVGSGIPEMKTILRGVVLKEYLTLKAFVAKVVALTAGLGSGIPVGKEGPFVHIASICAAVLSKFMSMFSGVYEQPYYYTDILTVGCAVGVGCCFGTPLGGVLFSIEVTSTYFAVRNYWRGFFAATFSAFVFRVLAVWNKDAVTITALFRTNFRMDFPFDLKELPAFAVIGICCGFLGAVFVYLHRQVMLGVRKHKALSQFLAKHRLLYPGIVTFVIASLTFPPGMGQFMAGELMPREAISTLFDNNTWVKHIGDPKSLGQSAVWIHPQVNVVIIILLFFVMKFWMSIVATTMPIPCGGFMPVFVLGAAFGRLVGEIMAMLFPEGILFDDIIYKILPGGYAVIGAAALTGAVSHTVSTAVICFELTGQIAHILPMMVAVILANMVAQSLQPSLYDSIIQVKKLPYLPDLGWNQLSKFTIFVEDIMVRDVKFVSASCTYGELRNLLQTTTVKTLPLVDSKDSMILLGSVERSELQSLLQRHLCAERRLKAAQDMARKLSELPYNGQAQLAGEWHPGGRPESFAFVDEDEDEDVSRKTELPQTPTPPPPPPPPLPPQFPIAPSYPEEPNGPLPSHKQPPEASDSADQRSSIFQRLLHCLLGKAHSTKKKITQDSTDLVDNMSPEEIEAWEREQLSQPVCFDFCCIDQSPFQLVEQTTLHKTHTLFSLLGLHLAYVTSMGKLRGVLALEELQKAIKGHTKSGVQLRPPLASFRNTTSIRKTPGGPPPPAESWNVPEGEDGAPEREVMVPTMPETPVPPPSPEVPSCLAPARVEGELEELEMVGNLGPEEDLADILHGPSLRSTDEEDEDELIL
Assay: Electrophysiological measurement of compound inhibition of CIC-1 in rat muscle (Gm, EC50)
Assay type: cell-based
Details: rat soleus muscle fibres, three micro-electrode Gm measurement; read-out: EC50 (inhibition of ClC-1 ion channel, Gm)

[2H]c1cc(Br)cc([2H])c1O[C@@H](C)C(=O)O [Compound A-6, (2S)-2-[4-bromo(2,6-^2H2)phenoxy]propanoic acid]
EC50: 7.4 ± 1.4 µM
